Reference: patent publication US20240024488A1, “COMPOUNDS AND USES THEREOF” (Foghorn Therapeutics Inc., priority 2020, published 2024)

The chains behind the UniProt entries cited, without tags or fusion partners.
UniProt P51532, whole entry: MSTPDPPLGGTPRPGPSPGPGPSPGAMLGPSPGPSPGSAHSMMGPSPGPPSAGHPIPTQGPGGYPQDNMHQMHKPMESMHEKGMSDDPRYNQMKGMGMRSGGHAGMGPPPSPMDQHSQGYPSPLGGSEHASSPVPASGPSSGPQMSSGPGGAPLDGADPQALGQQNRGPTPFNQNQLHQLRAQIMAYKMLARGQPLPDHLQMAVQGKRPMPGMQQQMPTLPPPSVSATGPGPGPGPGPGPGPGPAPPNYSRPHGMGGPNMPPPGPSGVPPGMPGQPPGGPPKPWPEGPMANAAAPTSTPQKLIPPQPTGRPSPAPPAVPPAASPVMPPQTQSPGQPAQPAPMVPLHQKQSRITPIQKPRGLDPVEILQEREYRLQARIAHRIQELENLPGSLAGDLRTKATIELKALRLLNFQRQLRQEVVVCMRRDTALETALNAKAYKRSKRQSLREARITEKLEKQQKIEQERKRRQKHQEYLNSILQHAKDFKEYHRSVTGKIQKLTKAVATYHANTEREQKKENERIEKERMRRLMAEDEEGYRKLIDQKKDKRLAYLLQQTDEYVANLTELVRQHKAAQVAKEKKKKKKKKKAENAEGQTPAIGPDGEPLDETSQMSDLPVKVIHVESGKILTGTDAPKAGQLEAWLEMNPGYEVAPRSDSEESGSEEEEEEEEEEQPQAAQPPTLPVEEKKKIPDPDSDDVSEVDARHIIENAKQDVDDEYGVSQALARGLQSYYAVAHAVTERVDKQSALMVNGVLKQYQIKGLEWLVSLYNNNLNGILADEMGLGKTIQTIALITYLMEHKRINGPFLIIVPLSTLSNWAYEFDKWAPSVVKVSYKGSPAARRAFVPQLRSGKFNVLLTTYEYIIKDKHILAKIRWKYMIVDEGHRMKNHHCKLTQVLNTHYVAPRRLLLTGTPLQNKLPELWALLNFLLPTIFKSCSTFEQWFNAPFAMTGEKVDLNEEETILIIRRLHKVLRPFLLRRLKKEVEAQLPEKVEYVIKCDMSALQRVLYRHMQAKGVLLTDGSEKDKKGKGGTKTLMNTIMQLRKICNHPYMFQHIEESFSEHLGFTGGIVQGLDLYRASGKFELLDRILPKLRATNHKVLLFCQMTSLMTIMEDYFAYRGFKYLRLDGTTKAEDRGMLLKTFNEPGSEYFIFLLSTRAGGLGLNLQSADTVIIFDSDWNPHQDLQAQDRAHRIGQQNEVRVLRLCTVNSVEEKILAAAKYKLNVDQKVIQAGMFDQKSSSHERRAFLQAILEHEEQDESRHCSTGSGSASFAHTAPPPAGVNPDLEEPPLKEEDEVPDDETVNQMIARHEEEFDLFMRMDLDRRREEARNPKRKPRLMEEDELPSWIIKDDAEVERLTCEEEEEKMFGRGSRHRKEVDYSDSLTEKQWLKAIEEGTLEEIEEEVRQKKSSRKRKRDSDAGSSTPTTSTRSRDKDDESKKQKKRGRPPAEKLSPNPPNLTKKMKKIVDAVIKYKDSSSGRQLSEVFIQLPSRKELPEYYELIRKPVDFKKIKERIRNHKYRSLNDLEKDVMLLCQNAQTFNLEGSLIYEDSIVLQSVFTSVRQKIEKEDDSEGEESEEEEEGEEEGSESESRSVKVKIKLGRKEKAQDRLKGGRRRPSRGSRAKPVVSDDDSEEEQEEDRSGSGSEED

Biological target: T1, HiBit-BRG1 fusion protein (Homo sapiens, UniProt P51532)
T1 construct: expressed in transfected cells
Assay: HiBiT-BRG1 cell-based degradation assay (Nano-Glo HiBiT Lytic Detection, 24 h)
Details: HeLa cell line expressing HiBit-BRG1 and LgBit, read-out: BRG1 HiBit Degradation Maximum (%)
Procedure: Procedure: A stable HeLa cell line expressing HiBiT-BRM was generated. On day 0, 5000 cells were seeded in 40 μL of media into each well of 384-well cell culture plates. […] Subsequently plates were incubated for 24 h in a standard tissue culture incubator and equilibrated at room temperature for 15 minutes. Nano-Glo HiBiT Lytic Detection System (Promega N3050) reagent was freshly prepared and 20 ul was added to each well. Upon addition of this LgBit-containing reagent, the HiBiT and LgBiT proteins associate to form the luminescent NanoBiT luciferase. The plates were shaken for 10 minutes at room temperature and the bioluminescence read using an EnVision plate reader (PerkinElmer).
For measurement of BRG1 degradation, a stable HeLa cell line expressing HiBit-BRG1 and LgBit was generated. The same protocol as above was then followed.
The degradation % was calculated using the following formula: % degradation=100%−100%×(LumSample−LumLC)/(LumHC−LumLC). DMSO treated cells are employed as High Control (HC) and 2 μM of a known BRM/BRG1 degrader standard treated cells are employed as Low Control (LC).

- Dmax: < 50%
SMILES: Cc1ncsc1-c1ccc([C@H](C)NC(=O)[C@@H]2C[C@@H](O)CN2C(=O)[C@H](c2cc(OCCN3CC(c4cc5cc(-c6ccccc6O)nnc5[nH]4)C3)no2)C(C)C)cc1 (racemic) [Compound 62, (2S,4R)-4-hydroxy-1-((S)-2-(3-(2-(3-(3-(2-hydroxyphenyl)-7H-pyrrolo[2,3-c]pyridazin-6-yl)azetidin-1-yl)ethoxy)isoxazol-5-yl)-3-methylbutanoyl)-N-((S)-1-(4-(4-methylthiazol-5-yl)phenyl)ethyl)pyrrolidine-2-carboxamide]
